Target: PIK3CD (Human) (UniProt O00329)
Test: Assessment of PIK3CD Kinase Activity

The chains behind the UniProt entries cited, without tags or fusion partners. Where a name states a change or a piece, a line headed by the entry shows the natural chain unless it says otherwise.
UniProt O00329: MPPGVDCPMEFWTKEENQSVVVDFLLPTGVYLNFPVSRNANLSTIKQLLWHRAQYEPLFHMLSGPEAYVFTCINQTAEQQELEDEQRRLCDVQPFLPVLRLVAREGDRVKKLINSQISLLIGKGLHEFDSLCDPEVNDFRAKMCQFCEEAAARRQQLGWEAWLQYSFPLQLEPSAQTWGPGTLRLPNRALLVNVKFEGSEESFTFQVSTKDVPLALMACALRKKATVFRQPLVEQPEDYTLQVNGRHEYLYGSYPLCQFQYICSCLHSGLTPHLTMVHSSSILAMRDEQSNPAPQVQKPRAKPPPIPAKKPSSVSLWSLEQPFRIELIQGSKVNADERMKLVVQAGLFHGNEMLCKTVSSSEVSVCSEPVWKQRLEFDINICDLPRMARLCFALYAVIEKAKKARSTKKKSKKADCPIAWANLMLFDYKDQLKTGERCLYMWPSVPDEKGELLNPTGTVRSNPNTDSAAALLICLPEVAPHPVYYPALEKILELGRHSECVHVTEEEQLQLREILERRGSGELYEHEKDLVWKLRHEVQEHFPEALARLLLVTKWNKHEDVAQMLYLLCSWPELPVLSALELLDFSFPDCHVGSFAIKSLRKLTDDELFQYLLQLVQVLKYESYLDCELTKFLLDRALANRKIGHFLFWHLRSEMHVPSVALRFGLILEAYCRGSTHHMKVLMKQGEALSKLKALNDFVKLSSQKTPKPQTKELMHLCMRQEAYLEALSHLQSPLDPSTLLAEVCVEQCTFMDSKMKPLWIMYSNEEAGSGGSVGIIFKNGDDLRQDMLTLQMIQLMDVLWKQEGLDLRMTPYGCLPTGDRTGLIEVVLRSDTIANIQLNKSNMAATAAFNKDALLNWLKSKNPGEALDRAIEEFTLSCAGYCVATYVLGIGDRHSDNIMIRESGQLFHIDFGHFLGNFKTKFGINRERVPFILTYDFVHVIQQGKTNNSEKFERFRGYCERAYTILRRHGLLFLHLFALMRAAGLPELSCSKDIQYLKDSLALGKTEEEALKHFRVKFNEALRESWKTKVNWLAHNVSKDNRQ

SMILES | IC50
C[C@H](Nc1ncnc2[nH]cnc12)c1cc(Cl)c2ccnnc2c1-c1cccc(F)c1 | < 50 nM
CC(Nc1ncnc2[nH]cnc12)c1cc(Cl)c2ccnnc2c1-c1cccc(F)c1 (configuration not stated) | < 50 nM

From the Kinase Knowledgebase extract (Sharma et al. 2016)
